Results on three molecules are retold here after US20050214870A1, “Assay” (priority 2001, published 2005).

Protein sequences, listed by entry. Tags and fused reporters are not part of them. Lines headed by an entry give the natural chain unless they say otherwise; changes in a name come on top.
UniProt Q12809: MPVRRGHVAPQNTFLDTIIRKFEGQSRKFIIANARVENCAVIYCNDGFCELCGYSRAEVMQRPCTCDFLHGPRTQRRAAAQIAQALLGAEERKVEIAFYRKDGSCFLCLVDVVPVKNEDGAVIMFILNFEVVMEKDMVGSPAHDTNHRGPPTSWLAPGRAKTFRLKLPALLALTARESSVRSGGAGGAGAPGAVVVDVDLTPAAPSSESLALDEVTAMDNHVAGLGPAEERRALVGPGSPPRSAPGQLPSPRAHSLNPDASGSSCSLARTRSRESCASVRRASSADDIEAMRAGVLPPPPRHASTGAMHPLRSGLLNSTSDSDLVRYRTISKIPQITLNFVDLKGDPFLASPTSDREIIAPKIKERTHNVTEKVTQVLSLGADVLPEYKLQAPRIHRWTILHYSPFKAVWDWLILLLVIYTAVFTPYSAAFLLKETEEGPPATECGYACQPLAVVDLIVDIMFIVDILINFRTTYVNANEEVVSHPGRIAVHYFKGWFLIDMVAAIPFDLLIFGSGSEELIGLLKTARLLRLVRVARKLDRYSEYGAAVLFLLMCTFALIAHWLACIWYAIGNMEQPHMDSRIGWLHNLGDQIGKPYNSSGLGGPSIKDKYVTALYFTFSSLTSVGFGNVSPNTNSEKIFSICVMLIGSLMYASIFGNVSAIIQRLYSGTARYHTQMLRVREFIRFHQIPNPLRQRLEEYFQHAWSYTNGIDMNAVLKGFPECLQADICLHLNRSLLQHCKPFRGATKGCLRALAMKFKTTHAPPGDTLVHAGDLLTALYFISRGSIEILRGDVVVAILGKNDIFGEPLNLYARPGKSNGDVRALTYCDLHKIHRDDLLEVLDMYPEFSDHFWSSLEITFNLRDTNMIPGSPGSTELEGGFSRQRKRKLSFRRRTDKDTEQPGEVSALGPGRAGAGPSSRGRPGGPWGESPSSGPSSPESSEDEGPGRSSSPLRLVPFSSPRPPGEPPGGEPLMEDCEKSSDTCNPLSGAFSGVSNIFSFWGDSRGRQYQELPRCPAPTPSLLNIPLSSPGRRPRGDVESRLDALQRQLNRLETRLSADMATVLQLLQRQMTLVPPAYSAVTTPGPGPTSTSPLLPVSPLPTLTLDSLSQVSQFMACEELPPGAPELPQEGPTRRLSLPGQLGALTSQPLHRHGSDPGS

As usually defined, the Kd is a measure of binding affinity in units of concentration. A lower Kd goes with a tighter complex.

In this data set the target is human HERG K+ channel (Homo sapiens, UniProt Q12809).

On to `COc1cc(N)c(Cl)cc1C(=O)NC1CCN(CCCOc2ccc(F)cc2)CC1OC` (stereo not shown) [Cisapride], for which the “inhibition of specific binding of [3H]-dofetilide” value is listed as “complete inhibition”.
Take `CN(CCOc1ccc(NS(C)(=O)=O)cc1)CCc1ccc(NS(C)(=O)=O)cc1` [Dofetilide]: the “inhibition of specific binding of [3H]-dofetilide” value is reported as “complete inhibition”.
Consider [^3H]-dofetilide, for which the Bmax was found to be 7.4 ± 0.7 pmol/mg and the Kd worked out at 5.08 ± 1 nM.
